Results as given in US20140024030A1, “PRESELECTION OF SUBJECTS FOR THERAPEUTIC TREATMENT WITH OXYGEN SENSITIVE AGENTS BASED IN HYPOXIC STATUS” (priority 2010, published 2014).

How the values were obtained:
[1] = test system: EGFR-expressing metastatic CRC; conditions: ERFLOX combination; cited from earlier work
[2] = test system: HCT116 human colon carcinoma xenograft; experiment: HCT116 xenograft model in nude mice (hypoxic tumor); assay type: in vivo; conditions: comparison of HCT116 and 786O xenografts in nude mice
Procedure: Human tumor cell lines HCT116 (ATCC #CRL-247; Schroy P C, et al. Cancer 76: 201-209, 1995) and 786-O (ATCC #CRL-1932; Williams R D, et al. In Vitro 12: 623-627, 1976), were obtained from the American Type Culture Collection (Manassus, Va., USA) were cultured using routine methods until a sufficient number of cells were obtained for implantation. Studies were conducted on animals between 7 and 12 weeks of age at implantation. To implant HCT116 tumor cells into nude mice, the cells were trypsinized, washed in PBS and resuspended at a concentration of 75×10^6 cells/ml in McCoy's modified medium with 50% of BD Matrigel® Basement Membrane Matrix (BD Biosciences®, Bedford, Mass., USA). To implant 786-O tumor cells into nude mice, the cells were trypsinized as above, washed in PBS and resuspended at a concentration of 75×10^6 cells/ml in RPMI 1640 medium with 50% of BD Matrigel® Basement Membrane Matrix. […] Tumor volumes (V) were calculated by caliper measurement of the width (W), length (L) and thickness (T) of tumors using the following formula: V=0.5236×(L×W×T). […]
As above, HCT116 and 786-O cells were cultured and implanted into nude mice using the methods in the previous example. Tumor growth was measured using calipers. […]
Tumor volume was monitored throughout the course of the study, until up to about 40 days from the date of tumor implantation. […]

[3] = test system: EGFR-expressing metastatic CRC; conditions: cited from earlier work

In the case of “cetuximab: antibody that binds specifically to the epidermal growth factor receptor (EGFR, HER1, c-ErbB-1)”, the “major grade 3/4 toxicities” value [1] is given as “diarrhea, neutropenia and acne-like rash”, the safety profile [1] is given as “acceptable safety profile” and the “efficacy at slowing tumor growth in HCT116 (high hypoxia) versus 786O (low hypoxia) tumors” value [2] is given as “not found to work better in the tumors with a higher level of hypoxia”. The “grade 3/4 asthenia” value ([3]; cetuximab with FOLFIRI) was 7%, the “grade 3/4 diarrhea” value ([3]; cetuximab with FOLFIRI) was 14% and the “grade 3/4 skin reactions” value ([3]; cetuximab with FOLFIRI) was 7%. For the same substance, the “effect on typical grade 3/4 toxicities of FOLFIRI” value ([3]; in vivo) was “does not appear to aggravate the typical grade 3/4 toxicities of FOLFIRI”.
